In PubChem BioAssay AID651582 (Sanford-Burnham Center for Chemical Genomics, 2012):
The list shows a part of the results, in another mix than the full data. Some salts or complexes appear as unconnected parts, following the source record. Calls of active or inactive are those of the source.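 How the source made its calls: active means pattern-corrected inhibition of lipid staining of at least 50% with the nuclear-stain viability signal not falling by more than 50%; inactive means the rest, inconclusive results apart.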

Experiment: TAG lipid buildup reduction in H9c2 cells – cell-based, uHTS, fluorescence, primary screen (AID 651582);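 further: 0% = DMSO wells and 100% = triacsin C control wells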
Settings: Nile Red lipid (TAG) fluorescence, at 12.5 µM, hits give high values, cells loaded with 200 µM oleic acid

SMILES	inhibition
Cc1c([N+](=O)[O-])cc([N+](=O)[O-])c(Br)c1[N+](=O)[O-]	inactive: -5.44%
COC(=O)c1cc2c(s1)N=C(c1ccccc1)N(C)P2(=O)N1CCOCC1 (centres undefined)	inactive: -3.72%
Cc1ccc(OP(=O)(Nc2ccccn2)Oc2ccc(C)cc2)cc1	inactive: -22.6%
Cc1ccccc1OP(=O)(Nc1ccccn1)Oc1ccccc1C	inactive: -10.1%
CC(NC(=O)COC(=O)C(O)(c1ccccc1)c1ccccc1)c1ccccc1 (centres undefined)	inactive: -19.5%
CN(C)C(=O)Oc1noc2ccccc12	inactive: -22.7%
O=[N+]([O-])c1cc([N+](=O)[O-])c(OC2CCCCC2O)c([N+](=O)[O-])c1 (centres undefined)	inactive: 13.9%
O=c1c2cc([N+](=O)[O-])ccc2[nH]c2c([N+](=O)[O-])cc([N+](=O)[O-])cc12	inactive: -9.21%
CCCCCOc1ccc(NP(C)(=O)Oc2ccc(Cl)cc2Cl)cc1 (centres undefined)	inactive: -79%
O=P1(Nc2nc3ccc(Cl)cc3s2)COc2ccccc2O1 (centres undefined)	inactive: -25.3%
O=[N+]([O-])c1cc([N+](=O)[O-])c(Nc2ccc(Cl)cc2)c([N+](=O)[O-])c1	inactive: -12%
CCOc1ccc(C2=NCC(CBr)S2)cc1 (centres undefined)	inactive: -4.2%
CC(C)(C)C(=O)NC(Sc1ccccc1)C(Cl)(Cl)Cl (centres undefined)	inactive: 2.91%
CC(C)c1ccc(OP(C)(=O)Nc2ccc(SC(F)(F)F)cc2)cc1 (centres undefined)	inactive: -11.9%
CCc1cc(O)c([N+](=O)[O-])c(C)c1[N+](=O)[O-]	inactive: -7.45%
Cc1ccccc1CN(C)C(=O)COC(=O)C(O)(c1ccccc1)c1ccccc1	inactive: -5.75%
C[C@@H]1C=CCP(=O)(Oc2ccccc2)O1 (some centres undefined)	inactive: -57.3%
N#C/C(=C\c1ccc(N(CCBr)CCBr)cc1)C(N)=O	inactive: 12.8%
COC(=O)C1(C)COP(=O)(NCc2ccccc2)OC1 (centres undefined)	inactive: -26.1%
O=C(OC1CN2CCC1CC2)c1ccc([N+](=O)[O-])cc1 (centres undefined)	inactive: -1.4%
COc1ccc2c(c1O)-c1c(O)c(OC)cc3c1[C@H](C2)[N+](C)(C)CC3.O=[N+]([O-])c1cc([N+](=O)[O-])c([O-])c([N+](=O)[O-])c1[O-]	inactive: -32.8%
CC(=O)Nc1ccc([As](=O)(O)O)c(O)c1	inactive: -8.77%
CC(=O)Nc1ccc(Oc2c([N+](=O)[O-])cc([N+](=O)[O-])cc2[N+](=O)[O-])cc1	inactive: -11.8%

SMILES	inhibition
O=P(Nc1nccs1)(c1ccccc1)c1ccccc1	inactive: 10.2%
CP(=O)(Nc1ccc(SC(F)(F)F)cc1)Oc1ccc(F)cc1 (centres undefined)	inactive: -40.3%
c1nnnn1CCn1cnnn1	inactive: -18.1%
CCOP(C)(=S)SCC(=O)NC(C)(CC)C(=O)O (centres undefined)	inactive: 0.505%
CP(=O)(Nc1ccc2c(c1)OCCO2)Oc1ccccc1 (centres undefined)	inactive: -1.35%
Cc1ccccc1NP(C)(=O)Nc1ccccc1C	inactive: -9.15%
COc1ccc(OP(C)(=O)Nc2cccc(Br)c2)cc1 (centres undefined)	inactive: -14.3%
COc1ccc(N)c([N+](=O)[O-])c1[N+](=O)[O-]	inactive: 15%
COc1ccc(NP(C)(=O)Oc2ccccc2OC)cc1 (centres undefined)	inactive: -6.12%
O=P(Nc1nc2ccccc2s1)(c1ccccc1)c1ccccc1	inactive: -24.1%
C[C@H]1OP(=O)(Oc2ccccc2)[C@H](O)[C@H](O)[C@H]1N=[N+]=[N-] (some centres undefined)	inactive: 3.05%
O=[As](O)(c1ccccc1)c1ccc(O)cc1	inactive: 8.15%
O=[N+]([O-])c1cc([N+](=O)[O-])c(NCC2CCS(=O)(=O)C2)c([N+](=O)[O-])c1 (centres undefined)	inactive: 9.8%
Cc1cc(-c2cccc3ccccc23)c(C)cn1.O=[N+]([O-])c1cc([N+](=O)[O-])c(O)c([N+](=O)[O-])c1	inactive: -4.34%
O=[N+]([O-])c1ccc(O)c(/C=N/Nc2ccc([N+](=O)[O-])cc2[N+](=O)[O-])c1	inactive: 0.655%
O=[N+]([O-])c1ncn(CCn2cnc([N+](=O)[O-])n2)n1	inactive: -6.69%
O=C(OC1CN2CCC1CC2)c1cccc(Cl)c1 (centres undefined)	inactive: 10.3%
Cc1c(C(c2ccc3c(c2)OCO3)c2c(C)n(C)n(-c3ccccc3)c2=O)c(=O)n(-c2ccccc2)n1C.O=[N+]([O-])c1cc([N+](=O)[O-])c(O)c([N+](=O)[O-])c1	inactive: -5.79%
Nc1ccc([As](=O)(O)c2ccc([N+](=O)[O-])cc2)cc1	inactive: 8.54%
O=P1(N(CCCl)CCCl)OCCCS1 (centres undefined)	inactive: 1.98%
O=[N+]([O-])c1ncn(CCn2ncnc2[N+](=O)[O-])n1	inactive: -0.562%
CC(C)(C)C(=O)NC(Sc1ccncn1)C(Cl)(Cl)Cl (centres undefined)	inactive: 6.45%
O=[N+]([O-])c1cccc(NC2=NCC(CBr)S2)c1 (centres undefined)	inactive: 2.96%

SMILES	inhibition
COC(=O)C1(C)COP(=O)(Nc2ccccc2)OC1 (centres undefined)	inactive: -15%
CCN(CC)CC(O)COC(=O)C(O)(c1ccccc1)C1CCCCC1 (centres undefined)	inactive: 6.82%
COc1ccc(C2=NCC(CBr)S2)cc1 (centres undefined)	inactive: 2.86%
Cc1ccc(NP(=O)(Oc2ccccc2)Oc2ccccc2)nc1	inactive: -17.6%
CP(=O)(Oc1ccccc1)N1CCOC1=O (centres undefined)	inactive: -16.1%
O=[N+]([O-])c1cc([N+](=O)[O-])c(CCNc2ccccc2)c([N+](=O)[O-])c1	inactive: -1.8%
CCc1ccc(OP(C)(=O)Nc2cccnc2)cc1 (centres undefined)	inactive: -12.9%
COc1ccccc1OP(C)(=O)Nc1c(C)n(C)n(-c2ccccc2)c1=O (centres undefined)	inactive: 2.12%
O=[N+]([O-])c1cccc2n[nH]nc12	inactive: -6.9%
O=C(OCCCN1CCCC1)C(O)(c1ccccc1)C1CCCCC1 (centres undefined)	inactive: -3.04%
CCN(/C(=N/P(=O)(N1CCOCC1)N1CCOCC1)N1CCOCC1)c1ccc(OC)cc1	inactive: -5.11%
Nc1ccc([As](=O)(O)c2ccc(N)cc2)cc1	inactive: 0.311%
COc1ccccc1OP(C)(=O)Nc1ccccc1Br (centres undefined)	inactive: -26.5%
C[N+]1=C2C=CC=CC=C2SC12C([N+](=O)[O-])=CC([N+](=O)[O-])=C[C-]2[N+](=O)[O-] (centres undefined)	inactive: 92.8%
c1cc(-c2nn[nH]n2)ccc1-c1nn[nH]n1	inactive: 9.2%
CC1CCN(C(=O)Oc2c(Cl)cc(Cl)c3cccnc23)CC1	inactive: -4.75%
CN(C)C(=O)c1c([N+](=O)[O-])cc([N+](=O)[O-])cc1[N+](=O)[O-]	inactive: 33.9%
CC(C)=N/N=C(\N)N[N+](=O)[O-]	inactive: 4.62%
CC(C)c1nc(Nc2ccccc2)n(P(=O)(N(C)C)N(C)C)n1	inactive: 12.7%
COc1ccccc1OP(C)(=O)Nc1ccc(Br)cc1 (centres undefined)	inactive: -3.15%
CN(C(=O)Cc1ccc(Cl)c(Cl)c1)[C@H]1CCCC[C@H]1N1CCCC1	inactive: -20.2%
Cc1ccc(N/C(=N/P(=O)(N2CCOCC2)N2CCOCC2)N2CCOCC2)cc1	inactive: -7.81%
NC(=O)c1cc([N+](=O)[O-])cc([N+](=O)[O-])c1N	inactive: 2.97%

SMILES	inhibition
Clc1ccc(Cl)c(NC2=NCC(CBr)S2)c1 (centres undefined)	inactive: -18.4%
CN1CCCC(OC(=O)C(c2ccccc2)c2ccccc2)C1 (centres undefined)	inactive: -1.07%
COc1ccccc1OP(=O)(Nc1ccc(C)cn1)Oc1ccccc1OC	inactive: -28.3%
Cc1ccc(OP(=O)(Nc2nccs2)Oc2ccc(C)cc2)cc1	inactive: -21.9%
O=[N+]([O-])c1cc([N+](=O)[O-])c(Nc2ccccn2)c([N+](=O)[O-])c1	inactive: -13.6%
Cc1c(NP(C)(=O)Oc2ccc(C(C)C)cc2)c(=O)n(-c2ccccc2)n1C (centres undefined)	inactive: 6.58%
Nc1cc(N)c2nonc2c1[N+](=O)[O-]	inactive: 3.14%
CCc1ccc(OP(C)(=O)O)cc1	inactive: 8.39%
CP(=O)(Nc1ccccn1)Oc1ccccc1 (centres undefined)	inactive: -29.6%
COc1ccccc1OP(C)(=O)Nc1ccc(C)cc1C (centres undefined)	inactive: -60.2%
O=C1C(O)=C([N+](=O)[O-])C(=O)C(O)=C1[N+](=O)[O-]	inactive: 6.96%
Cc1cc(C)cc(OP(C)(=O)Nc2cccc(C(F)(F)F)c2)c1 (centres undefined)	inactive: 13.5%
CN(C)P(=O)(N(C)C)n1c(Nc2ccccc2)nnc1-c1ccccc1	inactive: 17.9%
O=P(Nc1nc2ccc(Cl)cc2s1)(c1ccccc1)c1ccccc1	inactive: -3.4%
CCCC1OP(N)(=O)OCC1CC (centres undefined)	inactive: -13.6%
Cc1ccc(NP(=O)(Oc2ccccc2F)Oc2ccccc2F)nc1	inactive: -24.9%
CN(C(=O)Cc1ccc(Cl)c(Cl)c1)[C@H]1CCCC[C@@H]1N1CCCC1	inactive: 0.668%
CP(=O)(OCCOc1ccccc1)OCCOc1ccccc1	inactive: 19%
CP(=O)(Nc1ccc(Cl)cc1Cl)Oc1ccccc1 (centres undefined)	inactive: -22.9%
CCCCCCCCCCCCCCCC1C[N+](C)(C)CCOP(C)(=O)O1 (centres undefined)	inactive: -1.79%
